{"sequences": {"note": "The chains behind the UniProt entries cited, without tags or fusion partners. Residues count along the entry.", "UniProt Q06187, 402-655": "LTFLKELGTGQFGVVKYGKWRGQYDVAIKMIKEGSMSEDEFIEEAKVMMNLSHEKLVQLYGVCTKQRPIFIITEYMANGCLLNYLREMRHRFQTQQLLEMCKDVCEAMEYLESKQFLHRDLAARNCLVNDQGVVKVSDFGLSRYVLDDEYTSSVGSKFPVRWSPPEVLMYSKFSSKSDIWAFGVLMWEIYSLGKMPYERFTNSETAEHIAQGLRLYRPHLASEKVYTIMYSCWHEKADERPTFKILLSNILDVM"}, "source": "patent US20240139326A1", "about": "“METHACRYLAMIDES PROTEIN BINDERS AND USES THEREOF” (YEDA RESEARCH AND DEVELOPMENT CO. LTD., priority 2020, published 2024)", "target": "BTK kinase domain (Homo sapiens (Human), UniProt Q06187)", "assay": "Kinetic labeling experiments of Ibrutinib derivatives with BTK (intact protein LC/MS)", "conditions": "mechanism of BTK labeling", "data": [{"compound": "C=C(COc1ccccc1)C(=O)N1CCC[C@@H](n2nc(-c3ccc(Oc4ccccc4)cc3)c3c(N)ncnc32)C1", "note": "[Compound 3i, (R)-1-(3-(4-amino-3-(4-phenoxyphenyl)-1H-pyrazolo[3,4-d]pyrimidin-1-yl)piperidin-1-yl)-2-(phenoxymethyl)prop-2-en-1-one]", "values": [{"measurement": "BTK Substitution/Addition", "result": "Substitution"}]}]}
